Data: PubChem BioAssay AID1456 (Vanderbilt High Throughput Screening Facility, 2008)
This is a selection; strong and weak results do not stand in their true shares. Some salts or complexes appear as unconnected parts, following the source record. Active and inactive are the calls of the source.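 How the source made its calls: active means thallium flux slope and its plate-corrected score both differing from the plate sample mean at a set confidence after two filtering rounds, in either direction; inactive means the rest.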

Chains of the proteins cited; added tags and fusions are not shown.
UniProt Q9H2X9, whole entry: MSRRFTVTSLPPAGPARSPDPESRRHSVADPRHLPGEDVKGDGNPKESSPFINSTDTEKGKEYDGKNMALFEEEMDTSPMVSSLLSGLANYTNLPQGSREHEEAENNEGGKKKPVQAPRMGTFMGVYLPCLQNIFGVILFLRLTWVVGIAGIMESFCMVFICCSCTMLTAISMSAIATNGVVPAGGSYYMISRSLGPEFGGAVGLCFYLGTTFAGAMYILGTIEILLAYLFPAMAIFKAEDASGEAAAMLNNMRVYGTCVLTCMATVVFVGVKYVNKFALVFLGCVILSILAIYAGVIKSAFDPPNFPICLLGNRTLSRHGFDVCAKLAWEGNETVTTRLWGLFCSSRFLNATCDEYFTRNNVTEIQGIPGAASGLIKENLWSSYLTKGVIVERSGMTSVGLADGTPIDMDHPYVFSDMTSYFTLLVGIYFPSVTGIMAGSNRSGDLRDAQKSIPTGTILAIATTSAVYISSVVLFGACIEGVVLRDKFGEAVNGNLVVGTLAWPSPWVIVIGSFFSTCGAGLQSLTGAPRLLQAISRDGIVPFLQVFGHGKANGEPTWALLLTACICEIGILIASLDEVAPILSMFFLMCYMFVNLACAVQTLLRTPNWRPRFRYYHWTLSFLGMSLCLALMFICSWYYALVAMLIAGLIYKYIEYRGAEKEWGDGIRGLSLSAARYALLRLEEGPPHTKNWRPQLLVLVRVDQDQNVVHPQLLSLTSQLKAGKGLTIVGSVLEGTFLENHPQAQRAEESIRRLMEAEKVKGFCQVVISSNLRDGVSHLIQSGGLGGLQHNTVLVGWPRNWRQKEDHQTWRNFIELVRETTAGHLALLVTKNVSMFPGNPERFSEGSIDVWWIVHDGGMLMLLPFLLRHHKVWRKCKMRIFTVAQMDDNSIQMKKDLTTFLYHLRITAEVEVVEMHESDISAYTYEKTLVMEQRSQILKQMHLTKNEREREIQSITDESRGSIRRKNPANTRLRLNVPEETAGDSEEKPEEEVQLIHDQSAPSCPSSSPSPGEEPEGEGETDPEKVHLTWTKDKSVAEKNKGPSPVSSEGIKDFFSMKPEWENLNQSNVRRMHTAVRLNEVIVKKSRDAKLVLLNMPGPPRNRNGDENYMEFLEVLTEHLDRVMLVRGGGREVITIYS

The molecules below were run against Solute carrier family 12 member 5 (Homo sapiens) (UniProt Q9H2X9) (assay: KCC2 cotransporter modulators, thallium flux, primary screen, cell-based, HEK293 KCC2, FluoZin-2 fluorescence, MLSMR (AID 1456)). Details: KCC2 cells, thallium flux FluoZin-2 fluorescence; at 10 µM; stronger effect = higher value.

| SMILES | B-score |
| --- | --- |
| CP(=O)(Nc1ccc(SC(F)(F)F)cc1)Oc1ccc(F)cc1 (configuration not stated) | inactive: 0.884 |
| CCOP(C)(=S)SCC(=O)NC(C)(CC)C(=O)O (configuration not stated) | inactive: 0.677 |
| CP(=O)(Nc1ccc2c(c1)OCCO2)Oc1ccccc1 (configuration not stated) | inactive: 0.832 |
| Cc1ccccc1NP(C)(=O)Nc1ccccc1C | inactive: 0.707 |
| COc1ccc(OP(C)(=O)Nc2cccc(Br)c2)cc1 (configuration not stated) | inactive: 0.126 |
| COc1ccc(NP(C)(=O)Oc2ccccc2OC)cc1 (configuration not stated) | inactive: -0.499 |
| CN(C)CCOC(=O)C(O)(c1ccccc1)C1CCCCC1 (configuration not stated) | inactive: -0.229 |
| O=[N+]([O-])c1cc([N+](=O)[O-])c(NCC2CCS(=O)(=O)C2)c([N+](=O)[O-])c1 (configuration not stated) | inactive: -0.184 |
| Cc1cc(-c2cccc3ccccc23)c(C)cn1.O=[N+]([O-])c1cc([N+](=O)[O-])c(O)c([N+](=O)[O-])c1 | inactive: -2.92 |
| O=[N+]([O-])c1ccc(OP2(=O)COCCO2)cc1 (configuration not stated) | inactive: -0.761 |
| COc1ccc(OP(C)(=O)Nc2ccc(SC(F)(F)F)cc2)cc1 (configuration not stated) | inactive: -0.0607 |
| CCOC(=O)c1ccc(NP(C)(=O)Oc2ccc(F)cc2)cc1 (configuration not stated) | inactive: 0.856 |
| CCN(CC)CCCOC(=O)C(O)(c1ccccc1)C1CCCCC1 (configuration not stated) | inactive: 0.182 |
| CCCCCOc1ccc(NP(C)(=O)Oc2ccc(Cl)cc2Cl)cc1 (configuration not stated) | inactive: -0.108 |
| CP(=O)(Nc1ccccc1)Oc1ccc(F)cc1 (configuration not stated) | active: 3.49 |
| CC(C)c1ccc(OP(C)(=O)Nc2ccc(SC(F)(F)F)cc2)cc1 (configuration not stated) | inactive: -0.118 |
| O=C(OCCN1CCN(CCOCc2ccccc2)CC1)C(O)(c1ccccc1)c1ccccc1 | inactive: -0.437 |
| O=C(OC1CN2CCC1CC2)c1ccc([N+](=O)[O-])cc1 (configuration not stated) | inactive: -0.0133 |
| COc1ccc2c(c1O)-c1c(O)c(OC)cc3c1[C@H](C2)[N+](C)(C)CC3.O=[N+]([O-])c1cc([N+](=O)[O-])c([O-])c([N+](=O)[O-])c1[O-] | inactive: -0.696 |
| COc1ccccc1OP(C)(=O)Nc1ccc(Br)cc1 (configuration not stated) | inactive: -0.426 |
| CN(C)CCOC(=O)C(O)(c1ccccc1)C1CCCC1 (configuration not stated) | inactive: -0.00674 |
| COc1ccc(OP(C)(=O)Nc2ccccn2)cc1 (configuration not stated) | inactive: 0.55 |
| O=[N+]([O-])c1cc([N+](=O)[O-])c(Nc2ccccn2)c([N+](=O)[O-])c1 | inactive: -0.646 |
| Cc1c(NP(C)(=O)Oc2ccc(C(C)C)cc2)c(=O)n(-c2ccccc2)n1C (configuration not stated) | inactive: 0.666 |
| CCc1ccc(OP(C)(=O)O)cc1 | inactive: -0.791 |
| CP(=O)(Nc1ccccn1)Oc1ccccc1 (configuration not stated) | inactive: -0.00123 |

| SMILES | B-score |
| --- | --- |
| COc1ccccc1OP(C)(=O)Nc1ccc(C)cc1C (configuration not stated) | inactive: 0.278 |
| Cc1cc(C)cc(OP(C)(=O)Nc2cccc(C(F)(F)F)c2)c1 (configuration not stated) | inactive: 0.501 |
| COc1ccc(OP(C)(=O)Nc2ccccc2Br)cc1 (configuration not stated) | inactive: 0.37 |
| COc1ccccc1OP(C)(=O)Nc1ccc(C)c(C)c1 (configuration not stated) | inactive: -0.000338 |
| Cc1nc2ccc3ccccc3c2o1.O=[N+]([O-])c1cc([N+](=O)[O-])c(O)c([N+](=O)[O-])c1 | inactive: 0.133 |
| CP(=O)(OCCOc1ccccc1)OCCOc1ccccc1 | inactive: -0.845 |
| CP(=O)(Nc1ccc(Cl)cc1Cl)Oc1ccccc1 (configuration not stated) | inactive: -0.262 |
| CP(=O)(OC12CC3CC(CC(C3)C1)C2)OC12CC3CC(CC(C3)C1)C2 | inactive: 0.487 |
| CCOC(=O)c1ccc(NP(C)(=O)Oc2ccc(Cl)cc2)cc1 (configuration not stated) | inactive: -0.0453 |
| COc1ccc(OP(C)(=O)Nc2ccc(Br)cc2)cc1 (configuration not stated) | inactive: 0.185 |
| CCc1ccc(OP(C)(=O)Nc2cccnc2)cc1 (configuration not stated) | inactive: -1.31 |
| O=C(OCCCN1CCCC1)C(O)(c1ccccc1)C1CCCCC1 (configuration not stated) | inactive: 0.803 |
| CP(=O)(Nc1ccc(Cl)cc1)Oc1ccc(F)cc1 (configuration not stated) | inactive: 0.112 |
| CC(C)(C)c1ccc(OP(C)(=O)O)cc1 | inactive: -1.49 |
| COc1ccccc1OP(C)(=O)Nc1ccccc1Br (configuration not stated) | inactive: -0.301 |
| CN(C)C(=O)c1c([N+](=O)[O-])cc([N+](=O)[O-])cc1[N+](=O)[O-] | inactive: 1.22 |
| CP(=O)(Nc1ccc(SC(F)(F)F)cc1)Oc1ccc(Cl)cc1 (configuration not stated) | inactive: -1.63 |
| Cc1cccc(C)c1OP(C)(=O)Nc1ccc(SC(F)(F)F)cc1 (configuration not stated) | inactive: -0.323 |
| CP(=O)(Oc1ccccc1)OC(c1ccccc1)C(F)(F)F (configuration not stated) | inactive: -0.164 |
| CCc1ccc(OP(C)(=O)N2CCN(c3ccc([N+](=O)[O-])cc3)CC2)cc1 (configuration not stated) | inactive: -2.33 |
| CP(=O)(NC(=O)Nc1ccccc1)Oc1ccccc1 (configuration not stated) | inactive: 0.445 |
| Cc1cc(C)cc(OP(C)(=O)Nc2ccc(SC(F)(F)F)cc2)c1 (configuration not stated) | inactive: -0.584 |
| CCOP(C)(=S)SCC(=O)NC(C)C(=O)O (configuration not stated) | inactive: 0.809 |
| CCOC(=O)c1ccc(NP(C)(=O)Oc2ccc(OC)cc2)cc1 (configuration not stated) | inactive: 0.383 |
| CP(=O)(Nc1ccccn1)Oc1ccc(Cl)cc1 (configuration not stated) | inactive: 0.705 |
| CP(=S)(Nn1cnnc1)Oc1ccccc1 (configuration not stated) | inactive: 0.834 |

| SMILES | B-score |
| --- | --- |
| CP(=O)(Nc1ccccc1Br)Oc1ccccc1 (configuration not stated) | inactive: -1.73 |
| CC(C)(C)c1ccc(OP(C)(=O)Nc2ccc(SC(F)(F)F)cc2)cc1 (configuration not stated) | inactive: 1.11 |
| Cc1cccc(C)c1OP(C)(N)=O (configuration not stated) | inactive: 0.0826 |
| O=[N+]([O-])c1ccc2c(c1)C=Nc1ccccc1O2 | inactive: 0.144 |
| CCOC(=O)c1ccc(NP(C)(=O)Oc2ccccc2)cc1 (configuration not stated) | inactive: 0.253 |
| COc1ccccc1OP(C)(=O)Nc1ccc(C)cc1 (configuration not stated) | inactive: -0.0623 |
| Cc1ccc(NP(C)(=O)Oc2ccccc2)c(C)c1 (configuration not stated) | inactive: -0.019 |
| COc1ccccc1OP(C)(=O)Nc1cc(Cl)ccc1C (configuration not stated) | inactive: -1.08 |
| COc1ccc(OP(C)(=O)Nc2cccc(F)c2)cc1 (configuration not stated) | inactive: 0.39 |
| Cc1cc(C)cc(OP(C)(N)=O)c1 (configuration not stated) | inactive: 0.866 |
| COc1ccccc1OP(C)(=O)Nc1cccc(Br)c1 (configuration not stated) | inactive: -0.0194 |
| Cc1cc(C)cc(OP(C)(=O)Nc2ccc(C)cc2C)c1 (configuration not stated) | inactive: -1.24 |
| CCOC(=O)c1ccc(NP(C)(=O)Oc2cc(C)cc(C)c2)cc1 (configuration not stated) | inactive: -0.464 |
| CP(=O)(Nc1cccc(Br)c1)Oc1ccccc1 (configuration not stated) | inactive: 0.246 |
| Cc1cc(C)cc(OP(C)(=O)Nc2ccccn2)c1 (configuration not stated) | inactive: -0.49 |
| Cc1ccc(C)c(NP(C)(=O)Oc2ccccc2)c1 (configuration not stated) | inactive: 0.35 |
| CC1=NCCc2c1[nH]c1ccccc21.O=[N+]([O-])c1cc([N+](=O)[O-])c(O)c([N+](=O)[O-])c1 | inactive: 1.77 |
| O=[N+]([O-])c1cc([N+](=O)[O-])c(Nc2nnnn2CCO)c([N+](=O)[O-])c1 | inactive: -0.0411 |
| CCOC(=O)C(CC)C1=NC(C)(C)Cc2ccccc21.O=[N+]([O-])c1cc([N+](=O)[O-])c(O)c([N+](=O)[O-])c1 (configuration not stated) | inactive: 0.0541 |
| CN1CCCCC1COC(=O)C1(O)c2ccccc2CCc2ccccc21 (configuration not stated) | inactive: 1.08 |
| COc1ccccc1OP(C)(=O)Nc1c(C)cccc1C (configuration not stated) | inactive: 0.0458 |
| CP(=O)(Nc1ccc(SC(F)(F)F)cc1)Oc1ccccc1 (configuration not stated) | inactive: 0.251 |
| CCCOc1ccc(NP(C)(=O)Oc2ccc(Cl)cc2)cc1 (configuration not stated) | inactive: -0.0569 |
| O=[N+]([O-])c1cc([N+](=O)[O-])c(-n2nnc3ccccc32)c([N+](=O)[O-])c1 | inactive: -0.122 |
| Cc1nc2ccc3ccccc3c2s1.O=[N+]([O-])c1cc([N+](=O)[O-])c(O)c([N+](=O)[O-])c1 | inactive: -0.219 |
